The text below walks through data of paper PMC5926424 (Japanese Journal of Cancer Research : Gann, 2000).

For the assay, the system named is T.Tn cells. In kind it is cell-based. The settings on record: 50 μg/ml ATX-S10(Na), 24 h.

Take “HSA: human serum albumin, purchased human plasma protein”: the “Effect of plasma protein on cellular uptake of ATX-S10(Na)” value is reported as “inhibited”.
